The values below come from patent US9260410B2, “P38 MAP kinase inhibitors” (Respivert Ltd., priority 2010, dated 2016).

Amino acid sequences for entries named in this document (tags omitted). A change or cut given only in a name is not applied to a line headed by its entry.
UniProt P12931, whole entry, looked up, species assumed: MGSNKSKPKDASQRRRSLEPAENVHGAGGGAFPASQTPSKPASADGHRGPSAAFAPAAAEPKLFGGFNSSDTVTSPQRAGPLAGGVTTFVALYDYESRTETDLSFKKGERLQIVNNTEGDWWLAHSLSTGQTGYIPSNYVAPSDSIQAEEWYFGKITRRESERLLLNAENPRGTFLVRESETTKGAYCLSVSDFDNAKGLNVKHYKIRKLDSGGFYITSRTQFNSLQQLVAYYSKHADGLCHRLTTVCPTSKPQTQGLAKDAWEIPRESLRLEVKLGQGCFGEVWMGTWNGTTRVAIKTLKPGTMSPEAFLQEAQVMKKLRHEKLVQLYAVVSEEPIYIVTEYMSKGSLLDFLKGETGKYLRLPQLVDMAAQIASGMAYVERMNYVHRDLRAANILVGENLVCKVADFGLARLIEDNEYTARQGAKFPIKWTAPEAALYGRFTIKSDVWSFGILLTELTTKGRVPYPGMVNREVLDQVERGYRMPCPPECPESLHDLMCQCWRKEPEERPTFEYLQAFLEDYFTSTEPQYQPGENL
UniProt P53778: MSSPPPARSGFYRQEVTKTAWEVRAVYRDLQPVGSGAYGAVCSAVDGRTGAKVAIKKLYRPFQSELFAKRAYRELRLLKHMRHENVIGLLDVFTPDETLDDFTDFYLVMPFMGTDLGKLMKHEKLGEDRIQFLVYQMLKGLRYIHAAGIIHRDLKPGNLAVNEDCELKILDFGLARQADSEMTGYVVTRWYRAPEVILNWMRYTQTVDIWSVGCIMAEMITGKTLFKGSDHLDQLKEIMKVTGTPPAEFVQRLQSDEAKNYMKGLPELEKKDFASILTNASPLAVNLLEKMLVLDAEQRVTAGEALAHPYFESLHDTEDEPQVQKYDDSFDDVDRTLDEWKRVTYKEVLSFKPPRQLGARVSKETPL
UniProt Q16539, whole entry, looked up: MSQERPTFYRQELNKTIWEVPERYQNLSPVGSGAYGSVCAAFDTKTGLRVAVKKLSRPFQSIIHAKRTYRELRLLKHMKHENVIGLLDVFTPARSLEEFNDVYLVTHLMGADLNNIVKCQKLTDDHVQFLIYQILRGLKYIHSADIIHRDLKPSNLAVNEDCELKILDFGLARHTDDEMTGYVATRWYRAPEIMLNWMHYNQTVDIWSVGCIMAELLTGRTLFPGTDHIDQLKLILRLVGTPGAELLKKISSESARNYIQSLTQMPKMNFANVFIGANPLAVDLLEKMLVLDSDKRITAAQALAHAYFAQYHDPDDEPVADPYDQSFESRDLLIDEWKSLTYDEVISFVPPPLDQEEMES

In one assay the target is c-Src (Homo sapiens (Human), UniProt P12931). The conditions noted are these: read-out: Enzyme Inhibition IC50 (nM) c-Src; NE = No effect at a concentration of 1 ug/ml.
The next assay concerns the target p38 MAPKγ (MAPK12) (Homo sapiens (Human), UniProt P53778). To be noted: read-out: Enzyme Inhibition IC50 (nM) p38γ.
The target of assay [1] is p38 MAPKα isoform (MAPK14) (Homo sapiens (Human), UniProt Q16539). To be noted: read-out: Enzyme Inhibition IC50 (nM) p38α.

In the case of `CC(=O)Nc1cc(Oc2ccc(NC(=O)Nc3cc(C(C)(C)C)nn3-c3ccc(C)cc3)c3ccccc23)ccn1` [Example 3, N-(4-((4-(3-(3-(tert-Butyl)-1-(p-tolyl)-1H-pyrazol-5-yl)ureido)naphthalen-1-yl)oxy)pyridin-2-yl)acetamide], the IC50 at c-Src was below 18 nM; on p38 MAPKγ (MAPK12) it was 146 nM; in assay [1] it was 6.7 nM.
